These results are taken from patent US20100267731A1, “USE OF TRANSFORMING GROWTH FACTOR-B RECEPTOR INHIBITORS TO SUPPRESS OCULAR SCARRING” (Summa Health Systems, LLC, priority 2009, published 2010).

This data set concerns subconjunctival tissue fibroblast outgrowth. Kind of data set: Subconjunctival tissue fibroblast outgrowth assay ex vivo. The data set is classed as cell-based, New Zealand white rabbit. As to the method: Under an ophthalmic surgical microscope, subconjunctival tissues were dissected from the surgical site and 180 (6-o'clock position) from the surgical site (the 180° control). Each biopsy specimen (explant) was placed in a 25 cm^2 cell culture flask with complete media. […] The cell outgrowth, in mm, from the edge of each explant was observed, and the length of the outgrowth in 4 quadrants was measured.

With `CO[C@@]12[C@H](COC(N)=O)C3=C(C(=O)C(C)=C(N)C3=O)N1C[C@@H]1N[C@@H]12` [MMC, mitomycin C], the “difference in cell outgrowth versus untreated group” value (explants taken five days after GFS) is recorded as “a significant difference”. Further, the “cell outgrowth length, explant from surgical site” value (surgical site, over 18 days) is on record as “less than 2 mm”.
